Here are results for 9 molecules from patent US4388237A, “6(1-Piperazinyl), piperidino and (1(homopiperazinyl)11-cyanomethylene morphanthridines” (BASF Aktiengesellschaft, priority 1979, dated 1983).

Entries after “also recorded” stand apart in the source; their conditions may differ.

Type in all cases: in vivo
Assay [1] has as its system female Sprague-Dawley rats. As to the kind of experiment: Apomorphine-antagonistic effect (jaw movements, mandibulogram). Particulars: relative to Clozapin (1.00). As to the method: 4. Apomorphine-antagonistic effect
Jaw motions are triggered in groups of 4-6 female Sprague-Dawley rats by subcutaneous administration of 1.5 mg of apomorphine/kg, and are recorded by means of implanted electrodes (Kubacki mandibulogram, 1978) .
The ED 50% is the dose which reduces the number of jaw movements by 50% compared to untreated control animals.

Assay [2] has as its system female NMRI mice. As to the kind of experiment: Analgesic effect (D'Amour and Smith tail-flick method). Particulars: relative to Clozapin (1.00). (Thermal pain tests record how soon the animal reacts.)
In assay [3] the test system is female NMRI mice. As to the kind of experiment: Anti-cholinergic effect (protection against death from Physostigmin). Particulars: for Anti-cholinergic effect (in words): discussion of Table 1, Physostigmin antagonism. Here is the method:
3. Anti-cholinergic effect
A lethal dose (0.825 mg/kg) of Physostigmin is administered subcutaneously to groups of 10 female NMRI mice. The test substances are administered orally 30 minutes before administering the Physostigmin.
The ED 50% is the dose of substance which protects 50% of the animals against death from Physostigmin.

Assay [4] deals with female NMRI mice. In words: Sedative effect (orientation hypermotility). Particulars: relative to Clozapin (1.00). As to the method:
The substances are administered orally to groups of 4×3 or 8×3 female NMRI mice. The orientation hypermotility induced by a new environment is determined photoelectrically, 30 minutes after the administration of the substances, for a period of 30 minutes. The ED 50% is taken as the dose which reduces the orientation hypermotility by 50%, compared to untreated control animals.

For the molecule `Cc1ccc2c(c1)C(=CC#N)c1ccccc1C(N1CCN(C)CC1)=N2` (mixture of isomers) [13b cis-trans M, cis,trans-2-Methyl-11-cyanomethylene-6-(4-methyl-piperazin-1-yl)-morphanthridine], in assay [1], the “Apomorphine antagonism R.A. (relative activity)” value amounted to 0.19. Further, in assay [2], the “Analgesic effect R.A. (relative activity)” value is 0.21. For the same molecule, in assay [3], the “Anti-cholinergic effect (in words)” value is given as “manifests itself especially”. In addition, the “Anti-cholinergic effect R.A. (relative activity)” value in assay [3] (mouse, in vivo) turned out to be 5.15. Further, in assay [4], the “Sedative effect R.A. (relative activity)” value is recorded as 1.41.
For the molecule `Cc1ccc2c(c1)N=C(N1CCN(C)CC1)c1ccccc1/C2=C\C#N` [13a cis-isomer, cis-3-methyl-11-cyanomethylene-6-(4-methyl-piperazin-1-yl)-morphanthridine], in assay [1], the “Apomorphine antagonism R.A. (relative activity)” value worked out at 0.09. Further, the “Analgesic effect R.A. (relative activity)” value in assay [2] worked out at 2.18. Moreover, the “Sedative effect R.A. (relative activity)” value in assay [4] is reported as 4.47.
Consider `CCN1CCN(C2=Nc3ccccc3C(=CC#N)c3ccccc32)CC1` (mixture of isomers) [31 cis-trans M, cis,trans-11-Cyanomethylene-6-(4-ethyl-piperazin-1-yl)-morphanthridine], for which the “Apomorphine antagonism R.A. (relative activity)” value in assay [1] is on record as 0.19. Also, the “Analgesic effect R.A. (relative activity)” value in assay [2] is on record as < 0.21. Also, the “Anti-cholinergic effect (in words)” value in assay [3] was “manifests itself especially”. Further, the “Anti-cholinergic effect R.A. (relative activity)” value in assay [3] (mouse, in vivo) was 1.81. Moreover, the “Sedative effect R.A. (relative activity)” value in assay [4] stood at 1.42.
Turning to `CCN1CCN(C2=Nc3ccccc3/C(=C\C#N)c3ccccc32)CC1` [31 trans-isomer, trans-11-cyanomethylene-6-(4-ethyl-piperazin-1-yl)-morphanthridine], in assay [1], the “Apomorphine antagonism R.A. (relative activity)” value is given as 0.37. For the same molecule, the “Analgesic effect R.A. (relative activity)” value in assay [2] was < 0.04. The “Anti-cholinergic effect (in words)” value in assay [3] was “manifests itself especially; also recorded: stronger anti-cholinergic and apomorphine-antagonistic effect”. Also, the “Anti-cholinergic effect R.A. (relative activity)” value in assay [3] (mouse, in vivo) worked out at 2.52. Besides, in assay [4], the “Sedative effect R.A. (relative activity)” value is listed as > 0.04.
Take `CN1CCN(C2=Nc3ccccc3/C(=C\C#N)c3ccccc32)CC1` [1 trans-isomer, trans-11-cyanomethylene-6-(4-methyl-piperazin-1-yl)-morphanthridine]: the “Apomorphine antagonism R.A. (relative activity)” value in assay [1] came to 0.67. In addition, the “Analgesic effect R.A. (relative activity)” value in assay [2] was < 0.10. In addition, the “Anti-cholinergic effect R.A. (relative activity)” value in assay [3] (relative to Clozapin (1.00)) was determined as 3.00. The “Sedative effect R.A. (relative activity)” value in assay [4] is given as < 0.22.
For the molecule `CN1CCN(C2=Nc3ccccc3/C(=C/C#N)c3ccccc32)CC1` [1 cis-isomer, cis-11-cyanomethylene-6-(4-methylpiperazin-1-yl)-morphanthridine], the “Apomorphine antagonism R.A. (relative activity)” value in assay [1] came to 0.17. The “Analgesic effect R.A. (relative activity)” value in assay [2] was 0.07. For the same molecule, in assay [3] (relative to Clozapin (1.00)), the “Anti-cholinergic effect R.A. (relative activity)” value is on record as 0.81. In assay [4], the “Sedative effect R.A. (relative activity)” value is listed as 2.39.
In the case of `Cc1ccc2c(c1)N=C(N1CCN(C)CC1)c1ccccc1/C2=C/C#N` [13a trans-isomer, trans-3-methyl-11-cyanomethylene-6-(4-methylpiperazin-1-yl)-morphanthridine], the “Apomorphine antagonism R.A. (relative activity)” value in assay [1] came out at 0.42. The “Analgesic effect R.A. (relative activity)” value in assay [2] is reported as 0.03. Further, in assay [3], the “Anti-cholinergic effect (in words)” value was “stronger anti-cholinergic and apomorphine-antagonistic effect”. For the same molecule, the “Anti-cholinergic effect R.A. (relative activity)” value in assay [3] (mouse, in vivo) is recorded as 1.15.
Turning to `Cc1ccc2c(c1)N=C(N1CCN(C)CC1)c1ccccc1C2=CC#N` (mixture of isomers) [13a cis-trans M, cis,trans-3-Methyl-11-cyanomethylene-6-(4-methylpiperazin-1-yl)-morphanthridine], the “Apomorphine antagonism R.A. (relative activity)” value in assay [1] is listed as 0.23. The “Analgesic effect R.A. (relative activity)” value in assay [2] was determined as 0.40. In assay [4], the “Sedative effect R.A. (relative activity)” value was 5.90.
Take `CN1CCN(C2=Nc3ccccc3C(=CC#N)c3ccccc32)CC1` [1 cis-trans M, cis- and trans-11-Cyanomethylene-6-(4-methyl-piperazin-1-yl)-morphanthridine]: the “Apomorphine antagonism R.A. (relative activity)” value in assay [1] came out at 0.37. In addition, in assay [2], the “Analgesic effect R.A. (relative activity)” value was 0.04. For the same molecule, the “Anti-cholinergic effect (in words)” value in assay [3] (listed as Example 1 (cis-trans mixture)) was “manifests itself especially; also recorded: more strongly sedative and anti-cholinergic”. Moreover, the “Anti-cholinergic effect R.A. (relative activity)” value in assay [3] (mouse, in vivo) is 2.25. For the same molecule, in assay [4], the “Sedative effect R.A. (relative activity)” value was 1.71.
